Measured affinities in a library of Ab-95 light chain variants

Binding partner: SARS-CoV-2 spike HR2 peptide, sequence PDVDLGDISGINAS.

Ab-95 is the parent antibody, in scFv form: VH, then a 15-residue (Gly4Ser)3 linker, then VL. The heavy chain is unchanged in all variants.
VH: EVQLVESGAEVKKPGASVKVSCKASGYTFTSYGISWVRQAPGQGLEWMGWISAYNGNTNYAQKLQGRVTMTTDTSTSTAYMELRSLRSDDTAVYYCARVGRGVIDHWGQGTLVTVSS
VL: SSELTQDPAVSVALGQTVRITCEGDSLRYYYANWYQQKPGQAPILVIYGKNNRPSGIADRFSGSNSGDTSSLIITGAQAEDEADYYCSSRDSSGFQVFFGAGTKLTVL

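The starting antibody came from a phage panning campaign against this peptide. Variants in AAYL52 differ from the parent at up to three CDR positions; double and triple changes were sampled at random. AlphaSeq pools MATa yeast showing the antibodies with MATalpha yeast showing the peptide. Mating (16 h, 30 °C) was followed by selection of diploids and sequencing of their barcodes. Scores were corrected for input abundance and mapped to Kd with protein pairs of known affinity run in the same pool. Mating was done three times.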

Variants are written as CDR1, CDR2 and CDR3 of the light chain (limits as in the source). Parent: EGDSLRYYYAN, GKNNRPS, SSRDSSGFQVF. Numbers give log10(Kd / nM), so 0 is 1 nM and 3 is 1 µM. Smaller is tighter. "n.d." means that the variant was in the library but no mating with the target was seen in that replicate; the authors take this as a sign of poor binding, and no number exists. Three control strains display no target. For library AAYL52, 28% of the pairings with them gave a signal, with a median of 3.91 and one signal in twenty below 2.90, so weak values seen in few replicates may be background. Also given: how often the same scFv was detected with the empty control strains, with their mean in brackets. For reference, the parent read 2.31 as the reference entry and 2.25 as a member of this library.

| CDR-L1 | CDR-L2 | CDR-L3 | replicates, log10 nM | signal with controls |
|---|---|---|---|---|
| EGDSLRYYYAN | GKNNFPI | SIRDSSGFQVF | 3.87 n.d. n.d. | 5 of 9 (4.21) |
| EGDALRYYYAN | GANNRPS | SDRDSSGFQVF | 2.06 1.89 2.01 | 4 of 9 (4.72) |
| EGDSLRYEYAN | GKNNRPL | SSRDSSGFQVT | 1.96 1.85 1.18 | 1 of 9 (4.26) |
| EADSLRYYYAN | GKNNRCY | SSRDSSGFQVF | n.d. n.d. n.d. | 1 of 9 (4.61) |
| EGDSYRYYYAN | NKGNRPS | SSRDSSGFQVF | 4.03 3.29 3.74 | 3 of 9 (3.45) |
| EGDSLGYYYAM | GKNNRPS | SSRESSGFQVF | 2.78 2.78 n.d. | 3 of 9 (3.49) |
| EGDSLRLYYAN | GKNWRPS | SSRDSSDFQVF | 3.63 4.43 4.58 | 2 of 9 (3.77) |
| EGDSLRYYYAN | SKINRPS | SSRDSSHFQVF | 4.64 3.33 n.d. | 6 of 9 (3.61) |
| EGDSLRYYYAA | GKNNMPS | SSRDSSVFQVF | n.d. n.d. 4.35 | 2 of 9 (3.90) |
| EGDSLRTGIAN | GKNNRPS | SSRDSSGFQVF | 0.91 0.99 0.47 | 5 of 9 (4.12) |
| EGLSLRYKYAN | GKNKRPS | SSRDSSGFQVF | 2.73 2.99 2.61 | 3 of 9 (3.95) |
| EGDSLRYYYAV | GKNGRPS | SARDSSGFQVF | n.d. n.d. n.d. | 1 of 9 (3.97) |
| EGDSLRYSYAN | GWNNRPS | SSRTSSGFQVF | 2.33 2.33 1.77 | 6 of 9 (4.23) |
| EGDSLRYYYAN | GQNNRPS | SSRDSSGFQVF | 1.59 1.83 1.34 | 4 of 9 (3.88) |
| EGDSLRQYYAN | GKNNRPE | SSRYSSGFQVF | n.d. 4.62 n.d. | 1 of 9 (3.82) |
| EWDSLRYYYAN | GKNNRPS | SSRDSSGFQVF | 5.03 n.d. 4.31 | 4 of 9 (4.00) |
| ECDSRRYYYAN | GKNNRPS | STRDSSGFQVF | 3.88 3.00 2.51 | 4 of 9 (3.97) |
| EGDSLTYYPAN | GKNNRPY | SSRDSSGFQVF | 1.95 1.92 1.24 | 0 of 9 |
| VDDSLRYYYSN | GKNNRPS | SSRDSSGFQVF | 2.69 n.d. 4.54 | 3 of 9 (3.72) |
| EGDKLRYYYAN | GKGNRPS | SSRDSSGFQVF | 2.41 3.17 2.53 | 4 of 9 (4.37) |
| EIDSGRYYYAN | GKNNRPS | SSRDSHGFQVF | 3.78 n.d. n.d. | 1 of 9 (3.48) |
| EGDSLWYYYAN | GKNNRPS | ASRDSSGFMVF | 3.00 2.34 2.57 | 3 of 9 (3.57) |
| EGDSLRYYTAN | GKNNKPS | SSRDSSGFQVE | 3.23 3.22 2.51 | 1 of 9 (2.87) |
| EGDSSRNYYAN | GHNNRPS | SSRDSSGFQVF | 2.70 3.78 3.00 | 0 of 9 |
| EGDSLRYYYAN | GKNNRPS | QSRPSSWFQVF | n.d. 3.28 n.d. | 0 of 9 |
| EGDSLRYYYAK | GKNNRPS | SSIDSSKFQVF | n.d. n.d. n.d. | 1 of 9 (3.92) |
| EGDSLRYYYAN | WKNQRQS | SSRDSSGFQVF | n.d. n.d. n.d. | 1 of 9 (2.89) |
| EGDSMRSYYAN | GKNNRPS | SSRDSGGFQVF | n.d. 3.56 2.85 | 5 of 9 (3.85) |
| EGDSLGYYYAN | GKNNWPS | SSRDSVGFQVF | 3.71 n.d. n.d. | 2 of 9 (4.53) |
| EHDSLRYYYAN | GKNNRPS | SSRDSSGSQQF | 2.67 3.27 3.68 | 4 of 9 (3.70) |
| EGDSLEYYYAN | GKNNRGS | SSRDSSGFQQF | n.d. n.d. 2.89 | 3 of 9 (3.46) |
| EGDSLRYYYAN | GSNNRPF | SSRDSSGSQVF | 3.91 2.68 n.d. | 2 of 9 (2.64) |
| EGDDLRYYYAT | GKNNRPS | SSRDSSGFWVF | 4.42 n.d. n.d. | 3 of 9 (3.69) |
| AGDSHRYYWAN | GKNNRPS | SSRDSSGFQVF | 3.13 3.39 3.03 | 5 of 9 (3.65) |
| EIDSLRYYYAD | GKNNRPS | SSRDSSGFCVF | 5.62 5.70 n.d. | 5 of 9 (4.23) |
| EGLSLPYYYAN | GKNNNPS | SSRDSSGFQVF | n.d. 4.00 n.d. | 1 of 9 (2.52) |
| EGDSLRYYYAN | GKMNRPS | SSADSSGFQVV | 2.92 2.89 n.d. | 4 of 9 (4.19) |
| VGDDLRYYYAN | GKNNRPS | SSYDSSGFQVF | 3.18 2.55 2.90 | 6 of 9 (4.03) |
| EGDSLSYYYAY | GKNNRPS | SSRDSSGFQDF | 3.78 n.d. n.d. | 2 of 9 (3.05) |
| EGDSLRYYYNN | GKNNRPS | SSRDSQGFQQF | 2.97 3.45 2.45 | 1 of 9 (3.81) |
| EGDYLRDYYAP | GKNNRPS | SSRDSSGFQVF | 3.20 3.66 4.16 | 4 of 9 (4.11) |
| EGDSLRYYYAN | GKYNRPE | SFRDSSGFQVF | 2.97 4.27 4.19 | 2 of 9 (4.43) |
| EVDSLYYYYAN | GKNNRPS | SSRDSSGFQLF | 3.71 n.d. 4.86 | 2 of 9 (3.93) |

A selection of 3 entries from above:

| CDR-L1 | CDR-L2 | CDR-L3 | replicates, log10 nM | signal with controls |
|---|---|---|---|---|
| EVDSLYYYYAN | GKNNRPS | SSRDSSGFQLF | 3.71 n.d. 4.86 | 2 of 9 (3.93) |
| VDDSLRYYYSN | GKNNRPS | SSRDSSGFQVF | 2.69 n.d. 4.54 | 3 of 9 (3.72) |
| EWDSLRYYYAN | GKNNRPS | SSRDSSGFQVF | 5.03 n.d. 4.31 | 4 of 9 (4.00) |

From the AlphaSeq antibody data of Engelhart et al. 2022 (doi:10.1038/s41597-022-01779-4), copy in the FLAb collection.